Test results as given in US20190209472A1, “FORMULATIONS FOR DERMAL DELIVERY OF POLYMER CONJUGATES OF INDOLOCARBAZOLE COMPOUNDS WITH REDUCED EXPOSURE” (Sienna Biopharmaceuticals, Inc., priority 2017, published 2019).

How the values were obtained:
[1] = Validation of HPLC methods (SNA-120 assay and related substances, benzyl alcohol); settings: SNA-120 standard solutions, protected from light at ambient conditions
Source text: An HPLC method was developed for the detection of assay and related substances of SNA-120 drug product and placebo. The following method validation parameters were challenged: specificity; linearity; accuracy; precision (system and repeatability); range; stability of test solutions; limit of detection and quantitation; system suitability.
An HPLC method was developed for the detection of Benzyl Alcohol in SNA-120 drug product and placebo. The following method validation parameters were challenged: specificity; linearity; accuracy; precision (system and repeatability); range; stability of test solutions; system suitability.

[2] = Phase I study: CT327 and CT327 amide in human urine by HPLC-FLD; format: in vivo; settings: per subject, 1 g dose of 0.5% w/w CT327
Procedure: Sixteen patients were enrolled in 2 treatment groups.
The analytical procedure involved extraction of CT327 and CT327 amide from human urine by a liquid-liquid extraction. The human urine samples were analyzed using a validated HPLC method with fluorescence detection (FLD). […] Concentrations of the calibration curve standards, quality control samples and study samples were determined by the method of (1/x^2) weighted least squares linear regression.
A total of 84 human urine samples were analyzed. […] A further 28 samples were received from subjects who had been dosed with placebo; these were not analyzed. All samples were stored at −80° C. (±10° C.).
The extraction procedure involved a liquid-liquid extraction. A portion of the extract was injected onto the HPLC-FLD system.
For calibration curve generation, duplicate calibrators at seven different concentrations, a human urine blank and a human urine blank plus internal standard were prepared for each batch. The calibration curves were produced by plotting the analyte to internal standard peak area ratios (y-axis) versus the concentration. The gradient and the intercept were determined by (1/x^2) weighted least squares linear regression.
Calculated concentration of analyte=((PAR-C)/M), where: PAR=analyte to internal standard peak area ratio; C=intercept; and M=gradient.

[3] = system: subjects with pruritus associated with psoriasis vulgaris; test: Phase 1b maximal use study: ECG including QTcF assessment; format: in vivo, human
Procedure: On Study Days 1 and 29 subjects will be asked to assume the supine position and remain quiet but awake for at least 20 minutes around each nominal electrocardiogram (ECG) extraction point (15 minutes before the time point until 5 minutes after each time point). Once the ECG extraction is started (time: 0 h), the subject should remain at rest in the supine position for the next 5 minutes, with the exception of PK draws. The extraction time points from the continuous ECG monitoring of the QT interval corrected for heart rate (QTc) analysis are as follows: predose (within 1 hour of the start of dosing), and 0.5, 0.75, 1, 2, 4, 8, and 12 hours after the end of the SNA-120 application.
The average of triplicate ECG measurements from each time point will serve as each subject's QT value. Electrocardiograms will be measured using semi-automated methods for the ECG intervals. Annotations will be made on the global superimposed median beat. The Mortara eScribe software (or equivalent) will be used for the measurement. Interpretations for each ECG will be made by a board-certified cardiologist.

[4] = system: subjects with pruritus associated with psoriasis vulgaris; test: Phase 1b maximal use study: adverse events and tolerability; settings: in vivo
[5] = Earlier systemic and topical toxicological studies and clinical experience (incl. cream formulation)
[6] = over 12 hours on Day 1, Day/Hour 1/0.75
[7] = over 12 hours on Day 1, Day/Hour 1/12
[8] = over 12 hours on Day 29, Day/Hour 29/1
[9] = over 12 hours on Day 29, Day/Hour 29/8
[10] = over 12 hours on Day 29, Day/Hour 29/12

## (9S, 10R, 12R)-10-(3′-mPEG2000-1′,3′-oxazolidine-2′,4′-dione)-2,3,9,10,11,12-hexahydro-9-methyl-1-oxo-9,12-epoxy-1H-diindolo[1,2,3-fg:3′,2′,1′-k,l]pyrrolo[3,4-i][1,6] benzodiazocine] [CT327]
[1]
  Stability of test solutions: standards stable for up to: Standards are stable for up to 3 days when protected from light at
[2]; Day 1 0-12 h
  CT327 Concentration: NQ (concentrations below the LLOQ, and thus were reported as non-quantifiable (NQ))
[2]; Day 1 predose
  CT327 Concentration: NQ (concentrations below the LLOQ, and thus were reported as non-quantifiable (NQ))
[2]; Day 3 0-12 h
  CT327 Concentration: NQ (concentrations below the LLOQ, and thus were reported as non-quantifiable (NQ))
[2]; Day 3 predose
  CT327 Concentration: NQ (concentrations below the LLOQ, and thus were reported as non-quantifiable (NQ))
[2]; Day 7 0-12 h
  CT327 Concentration: NQ (concentrations below the LLOQ, and thus were reported as non-quantifiable (NQ))
[2]; Day 7 12-24 h
  CT327 Concentration: NQ (concentrations below the LLOQ, and thus were reported as non-quantifiable (NQ))
[2]; Day 7 predose
  CT327 Concentration: NQ (concentrations below the LLOQ, and thus were reported as non-quantifiable (NQ))
[3]; 30 patients, up to 15 time points
  ECG effect: no associated clinically significant ECG changes
[3]; [6]
  Holter ECG PR: Maximum mean (SD) change from baseline: 2.33 (6.66) msec
  Holter ECG QRS: Maximum mean (SD) change from baseline: 1.13 (3.85) msec
[3]; over 12 hours on Day 1, Day/Hour 1/1
  Holter ECG HR: Minimum mean change from baseline: −5.12 bpm
[3]; over 12 hours on Day 1, Day/Hour 1/2
  Holter ECG QTcF: Maximum mean (SD) change from baseline: 2.93 (9.63) msec
[3]; over 12 hours on Day 1, Day/Hour 1/8
  Holter ECG QRS: Minimum mean change from baseline: -1.32 ms
[3]; [7]
  Holter ECG PR: Minimum mean change from baseline: -1.31 ms
  Holter ECG QTcF: Minimum mean change from baseline: -5.12 ms
[3]; over 12 hours on Day 1, Day/Hour 1/12^
  Holter ECG HR: Maximum mean (SD) change from baseline: 8.14 (5.68) bpm
[3]; over 12 hours on Day 29, Day/Hour 29/0.5
  Holter ECG PR: Maximum mean (SD) change from baseline: 3.90 (8.61) msec
[3]; over 12 hours on Day 29, Day/Hour 29/0.75
  Holter ECG QTcF: Maximum mean (SD) change from baseline: 5.98 (10.45) msec
[3]; [8]
  Holter ECG HR: Minimum mean change from baseline: −4.25 bpm
  Holter ECG QRS: Maximum mean (SD) change from baseline: 1.46 (5.23) msec
[3]; [9]
  Holter ECG HR: Maximum mean (SD) change from baseline: 9.50 (9.73) bpm
  Holter ECG QRS: Minimum mean change from baseline: -1.90 ms
[3]; [10]
  Holter ECG PR: Minimum mean change from baseline: 0.39 ms
  Holter ECG QTcF: Minimum mean change from baseline: -4.97 ms
[3]; standard ECG, Day 8
  Standard ECG PR: Maximum mean (SD) change from baseline: 2.4 (13.5) msec
[3]; standard ECG, Day 8, 0.5% (w/w) SNA-120
  Standard ECG HR: Maximum mean (SD) change from baseline: 3.1 (11.3) bpm
[3]; standard ECG, Day 15
  Standard ECG PR: Minimum mean change from baseline: -1.5 ms
  Standard ECG QRS: Minimum mean change from baseline: -0.5 ms
  Standard ECG QTcF: Minimum mean change from baseline: 1.7 ms
[3]; standard ECG, Day 43
  Standard ECG QRS: Maximum mean (SD) change from baseline: 4.0 (6.6) msec
  Standard ECG QTcF: Maximum mean (SD) change from baseline: 9.1 (16.4) msec
[3]; standard ECG, Day 43, 0.5% (w/w) SNA-120
  Standard ECG HR: Minimum mean change from baseline: −0.1 bpm
[4]
  Overall safety parameters (laboratory assessments, ECG, QTc duration, AEs): no associated clinically relevant changes
  Tolerability: well tolerated
[5]; in vivo
  Systemic absorption: poorly systemically absorbed
[5]; systemic and topical toxicological studies and clinical experience
  Safety and tolerability: safe and well tolerated
